Target: VMAT2 (Homo sapiens, UniProt Q05940)
Assay: VMAT2 competitive radioligand binding assay
Procedure: Assays were performed under conditions described in the accompanying “Methods” section of this report. Where presented, IC50 values were determined by a non-linear, least squares regression analysis using MathIQ™ (ID Business Solutions Ltd., UK). […] Where presented, the Hill coefficient (nH), defining the slope of the competitive binding curve, was calculated using MathIQ™.

Amino acid sequences for entries named in this document (tags omitted).
UniProt Q05940, whole entry: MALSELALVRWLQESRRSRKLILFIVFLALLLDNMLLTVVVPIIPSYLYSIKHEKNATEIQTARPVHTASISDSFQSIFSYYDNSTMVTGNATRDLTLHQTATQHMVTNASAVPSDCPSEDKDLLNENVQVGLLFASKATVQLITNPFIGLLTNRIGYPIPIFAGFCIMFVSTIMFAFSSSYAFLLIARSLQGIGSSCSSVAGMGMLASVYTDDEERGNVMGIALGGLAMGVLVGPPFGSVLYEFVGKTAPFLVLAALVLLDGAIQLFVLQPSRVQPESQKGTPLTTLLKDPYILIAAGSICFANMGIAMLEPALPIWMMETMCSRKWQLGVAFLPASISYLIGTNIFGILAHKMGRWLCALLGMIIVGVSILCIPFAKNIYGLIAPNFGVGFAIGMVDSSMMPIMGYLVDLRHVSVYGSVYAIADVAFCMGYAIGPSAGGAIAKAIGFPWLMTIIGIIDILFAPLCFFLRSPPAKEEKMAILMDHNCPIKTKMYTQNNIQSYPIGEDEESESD

[2H]C([2H])([2H])Oc1cc2c(cc1OC([2H])([2H])[2H])[C@@H]1C[C@@H](O)[C@@H](CC(C)C)CN1CC2 [[−]-β-DHTBZ, (−) -β-3-isobutyl-9,10-di(methoxy-d3)-1,3,4,6,7,11b-hexahydro-2H-pyrido[2,1-a]isoquinolin-2-ol]
VMAT2 inhibition in vitro (in words): inactive

[2H]C([2H])([2H])Oc1cc2c(cc1OC([2H])([2H])[2H])[C@@H]1C[C@H](O)[C@@H](CC(C)C)CN1CC2 [[−]-α-DHTBZ, (−)-α-3-isobutyl-9,10-di(methoxy-d3)-1,3,4,6,7,11b-hexahydro-2H-pyrido[2,1-a]isoquinolin-2-ol]
VMAT2 inhibition in vitro (in words): inactive

From patent US20240207247A1, “METHODS FOR THE COMBINED ADMINISTRATION OF DEUTETRABENAZINE AND A CYP2D6 INHIBITOR” (Neurocrine Biosciences, Inc., priority 2021, published 2024)
